# In patent US20190091259A1, “Selective Chemotherapy Treatments and Diagnostic Methods Related Thereto” (Emory University, priority 2014, published 2019):
# System: SCLC cell lines
# Experiment: Short-term MTS cytotoxicity assay in a panel of 9 SCLC cell lines
# Conditions: especially at concentrations ≥20 μmol/L
structure (smiles),measurement,value
C[C@]1(c2nc3c(C(N)=O)cccc3[nH]2)CCCN1 [veliparib],"single-agent activity in several cell lines (H187, H146, DMS153)",modest activity
